# According to paper PMC5458179, “Oxidative DNA double strand breaks and autophagy in the antitumor effect of sterically hindered platinum(II) complexes in NSCLCs” (Oncotarget, 2017):
# System: A549 xenograft tumors
# Details: 5 mg/kg i.v.
# Method: To evaluate the anti-tumor effect of complex 3 in vivo, an xenografts nude mice model of A549 cancer cells was performed. […] At the end of treatments, the tumor weight was measured to detect the antitumor activity of these measured groups. […] Because platinum-based drugs are well known for their toxic effects on the mean bodyweights of treated animals, the toxicity of complex 3 in the body weights of mice was assayed. […] The mice treated with the tested complex 3 were selected for histological analyses.
# Thirty-five nude mice (BALB/c) with body weight range from 18–22 g, were supplied by Shanghai Laboratory Animal Center, China Academy of Sciences. […] The tumor growth was monitored by measuring the perpendicular diameter of the tumor using calipers every two days and calculated according to the formula: […]
# Growth curves were plotted using the average tumor volume within each experimental group at the set time points. The whole group of mice was sacrificed after the last treatment, then tumor weight was evaluated as the antitumor activity of the corresponding groups, and the kidneys, livers and tumors were excised for immunohistochemistry analysis. The body weight and physical state of the mice were measured simultaneously as an indicator of systemic toxicity.
smiles,measurement,value
"O=C1[O][Pt]2([NH][C@@H]3CCCC[C@H]3[NH]2)[O]C1=O [Oxaliplatin, oxaliplatin, reference compound]",bodyweights of mice during treatment,continuous decrease of bodyweights
